The target of the assay is URAT1 (Homo sapiens (Human), UniProt Q96S37). In words: Inhibition of [8-14C] uric acid uptake by HEK293 cells stably expressing URAT1, test compounds at 10 μM. It counts as cell-based. The following applies: 10 μM test compound, 30 μM [8-14C] uric acid, 2 min, read-out: Inhibition rate (%). The protocol:
(I) Inhibitory Experiment of the Test Compounds at a Concentration of 10 μM on URAT1 After trypsin digestion, the expression cells (HEK293) stably expressing URAT1 gene and mock cells were all inoculated into lysine-coated 24-well culture plates, with the cell inoculation density being 1×10^5 cells/well, and cultured in incubator at 37° C., 5% CO2 and saturated humidity for 2 days. […] After 2 min, the reaction was terminated with ice-bathed DPBS buffer solution and washing was carried out for three times. […]
wherein, control=the intensity of radioactivity corresponding to the well without the test compound test compound=the intensity of radioactivity corresponding to the well with the test compound mock=the intensity of radioactivity corresponding to the well of blank cells untransfected with URAT1

By UniProt entry, the sequences of proteins in these tests, tags left out. Where a name states a change or a piece, a line headed by the entry shows the natural chain unless it says otherwise.
UniProt Q96S37: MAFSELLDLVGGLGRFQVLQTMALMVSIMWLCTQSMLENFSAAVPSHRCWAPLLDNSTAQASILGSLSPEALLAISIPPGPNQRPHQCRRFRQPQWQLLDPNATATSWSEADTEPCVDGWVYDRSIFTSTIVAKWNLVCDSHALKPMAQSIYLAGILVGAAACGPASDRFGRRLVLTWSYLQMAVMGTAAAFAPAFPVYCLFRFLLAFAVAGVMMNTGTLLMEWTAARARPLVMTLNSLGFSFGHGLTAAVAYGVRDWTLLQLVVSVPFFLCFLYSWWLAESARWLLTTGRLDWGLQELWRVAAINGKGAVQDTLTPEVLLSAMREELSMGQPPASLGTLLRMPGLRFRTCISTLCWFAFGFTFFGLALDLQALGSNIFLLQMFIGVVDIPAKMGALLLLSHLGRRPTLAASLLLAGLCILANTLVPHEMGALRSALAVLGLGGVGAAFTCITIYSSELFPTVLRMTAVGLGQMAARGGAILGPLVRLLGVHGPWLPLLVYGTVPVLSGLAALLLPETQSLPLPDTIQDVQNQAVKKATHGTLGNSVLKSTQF

We go through 1 molecule from US10584104B2, “Carboxylic acid URAT1 inhibitor containing diarylmethane structure, preparation method and use thereof” (TIANJIN INSTITUTE OF PHARMACEUTICAL RESEARCH CO., LTD., priority 2015, dated 2020).

Turning to `O=C(O)CSc1nnc(Br)n1-c1ccc(C2CC2)c2ccccc12` [lesinurad, Lesinurad, reference compound], the inhibition (in general, the share of the control response that was lost under treatment) at 10 µM was found to be 44%.
